Measurements published in PubChem BioAssay AID651702 (NMMLSC, 2012).
The entries are a selection whose mix differs from that of the whole data set. Some salts and complexes are drawn in separate pieces, as the source files them; their charges need not balance. Calls of active or inactive are those of the source.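 Rule for the calls: active = inhibition above about 55% (limit read from the data); inconclusive = no clear call, values can overlap the other calls; inactive = the rest.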

test: LAMP-1 surface exposure blockers, TALL-104 cells – cell-based, flow cytometry, MLPCN library, primary screen (AID 651702); conditions: TALL-104 LAMP-1 surface exposure, at 10 µM, stronger effect = higher value, cells stimulated with thapsigargin and PMA

Compound	inhibition
COc1ccccc1-c1ccccn1.O=[N+]([O-])c1cc([N+](=O)[O-])c(O)c([N+](=O)[O-])c1	inactive: 0.1%
CCN(CC)CCCOC(=O)C(O)(c1ccccc1)c1ccccc1	inactive: 2.2%
Cc1ccc(NP(C)(=O)Oc2ccccc2)c(C)c1 (centres undefined)	inactive: 1.8%
COc1ccccc1OP(C)(=O)Nc1ccc(C)cc1 (centres undefined)	inactive: -4%
CCOC(=O)c1ccc(NP(C)(=O)Oc2ccccc2)cc1 (centres undefined)	inactive: -5.3%
Cc1cc(C)cc(OP(C)(N)=O)c1 (centres undefined)	inactive: 2.9%
COc1ccc(OP(C)(=O)Nc2cccc(F)c2)cc1 (centres undefined)	inactive: -1.5%
COc1ccccc1OP(C)(=O)Nc1cc(Cl)ccc1C (centres undefined)	inactive: 8.9%
O=[N+]([O-])c1cc([N+](=O)[O-])c(Nc2cccnc2)c([N+](=O)[O-])c1	inactive: 7.7%
O=[N+]([O-])c1ccc2c(c1)C=Nc1ccccc1O2	inactive: -1.9%
Cc1cccc(C)c1OP(C)(N)=O (centres undefined)	inactive: 0.5%
CC(C)(C)c1ccc(OP(C)(=O)Nc2ccc(SC(F)(F)F)cc2)cc1 (centres undefined)	inactive: -5.4%
CP(=S)(Nn1cnnc1)Oc1ccccc1 (centres undefined)	inactive: -1.6%
CP(=O)(Nc1ccccc1Br)Oc1ccccc1 (centres undefined)	inactive: -1.4%
COc1ccccc1OP(C)(=O)Nc1ccccc1 (centres undefined)	inactive: -5.5%
O=[N+]([O-])c1cc([N+](=O)[O-])c(O)c([N+](=O)[O-])c1.c1ccc(Oc2ccncc2)cc1	inactive: 2.1%
CCOC(=O)c1ccc(NP(C)(=O)Oc2ccc(OC)cc2)cc1 (centres undefined)	inactive: -4.1%
CCOP(C)(=S)SCC(=O)NC(C)C(=O)O (centres undefined)	inactive: 8.2%
CP(=O)(Nc1ccccn1)Oc1ccc(Cl)cc1 (centres undefined)	inactive: 3.5%
CP(=O)(Oc1ccccc1)OC(c1ccccc1)C(F)(F)F (centres undefined)	inactive: 0.3%
CP(=O)(Nc1ccc(SC(F)(F)F)cc1)Oc1ccc(Cl)cc1 (centres undefined)	inactive: 7.3%
Cc1cccc(C)c1OP(C)(=O)Nc1ccc(SC(F)(F)F)cc1 (centres undefined)	inactive: -0.5%
Cc1ccc(Nc2c([N+](=O)[O-])cc([N+](=O)[O-])cc2[N+](=O)[O-])cc1	inactive: 0.4%
Cc1cc(C)cc(OP(C)(=O)Nc2ccc(SC(F)(F)F)cc2)c1 (centres undefined)	inactive: -1.1%
CCc1ccc(OP(C)(=O)N2CCN(c3ccc([N+](=O)[O-])cc3)CC2)cc1 (centres undefined)	inactive: 39.5%

Compound	inhibition
CP(=O)(NC(=O)Nc1ccccc1)Oc1ccccc1 (centres undefined)	inactive: -4.2%
O=[N+]([O-])c1cc([N+](=O)[O-])c(-c2cnn(-c3ccccc3)c2)c([N+](=O)[O-])c1	inactive: 23.2%
Cc1nc2ccc3ccccc3c2s1.O=[N+]([O-])c1cc([N+](=O)[O-])c(O)c([N+](=O)[O-])c1	inactive: 1%
O=[N+]([O-])c1cc([N+](=O)[O-])c(-n2nnc3ccccc32)c([N+](=O)[O-])c1	inactive: -3.7%
CN(Cc1cccnc1)C(=O)COc1ccc(Cl)c(Cl)c1.O=[N+]([O-])c1cc([N+](=O)[O-])c(O)c([N+](=O)[O-])c1	inactive: -5.2%
CN1CCCCC1COC(=O)C1(O)c2ccccc2CCc2ccccc21 (centres undefined)	inactive: 2.4%
COc1ccccc1OP(C)(=O)Nc1c(C)cccc1C (centres undefined)	inactive: -2.7%
COc1ccc(-c2ccccn2)cc1.O=[N+]([O-])c1cc([N+](=O)[O-])c(O)c([N+](=O)[O-])c1	inactive: -8.7%
CP(=O)(Nc1ccc(SC(F)(F)F)cc1)Oc1ccccc1 (centres undefined)	inactive: 3.4%
CCCOc1ccc(NP(C)(=O)Oc2ccc(Cl)cc2)cc1 (centres undefined)	inactive: -2.4%
CCOC(=O)C(CC)C1=NC(C)(C)Cc2ccccc21.O=[N+]([O-])c1cc([N+](=O)[O-])c(O)c([N+](=O)[O-])c1 (centres undefined)	inactive: -1.1%
O=[N+]([O-])c1cc([N+](=O)[O-])c(Nc2nnnn2CCO)c([N+](=O)[O-])c1	inactive: 3.7%
CC1=C2N=C(C=C3N=C(C(C)=C4[N-][C@@](C)([C@@H]5N=C1[C@](C)(CCC(=O)NC[C@@H](C)OP(=O)([O-])O[C@H]1[C@@H](O)[C@@H](n6cnc7cc(C)c(C)cc76)O[C@@H]1CO)[C@H]5CC(N)=O)[C@@](C)(CC(N)=O)[C@@H]4CCC(N)=O)[C@@](C)(CC(N)=O)[C@@H]3CCC(N)=O)C(C)(C)[C@@H]2CCC(N)=O.[C-]#N.[Co+3]	inactive: -0.7%
CC1=NCCc2c1[nH]c1ccccc21.O=[N+]([O-])c1cc([N+](=O)[O-])c(O)c([N+](=O)[O-])c1	inactive: -1.2%
O=C(O)c1cccc(Nc2c([N+](=O)[O-])cc([N+](=O)[O-])cc2[N+](=O)[O-])c1	inactive: -1.7%
Cc1ccc(C)c(NP(C)(=O)Oc2ccccc2)c1 (centres undefined)	inactive: -3%
CP(=O)(Nc1cccc(Br)c1)Oc1ccccc1 (centres undefined)	inactive: -6.9%
Cc1cc(C)cc(OP(C)(=O)Nc2ccccn2)c1 (centres undefined)	inactive: 0.3%
COc1ccccc1OP(C)(=O)Nc1cccc(Br)c1 (centres undefined)	inactive: -1%
CCOC(=O)c1ccc(NP(C)(=O)Oc2cc(C)cc(C)c2)cc1 (centres undefined)	inactive: -2.9%
Cc1cc(C)cc(OP(C)(=O)Nc2ccc(C)cc2C)c1 (centres undefined)	inactive: -1.7%
O=C(OC1CN2CCC1CC2)c1ccc([N+](=O)[O-])cc1 (centres undefined)	inactive: 10.1%
O=C(OCCN1CCN(CCOCc2ccccc2)CC1)C(O)(c1ccccc1)c1ccccc1	inactive: -2.8%
COc1ccc2c(c1O)-c1c(O)c(OC)cc3c1[C@H](C2)[N+](C)(C)CC3.O=[N+]([O-])c1cc([N+](=O)[O-])c([O-])c([N+](=O)[O-])c1[O-]	inactive: 11.6%
O=[N+]([O-])c1cc([N+](=O)[O-])c(Nc2ccc(Cl)cc2)c([N+](=O)[O-])c1	inactive: 2.7%

Compound	inhibition
CP(=O)(Nc1ccccc1F)Oc1ccccc1 (centres undefined)	inactive: -1.4%
CC(C)c1ccc(OP(C)(=O)Nc2ccc(SC(F)(F)F)cc2)cc1 (centres undefined)	inactive: 0.5%
Cc1c([N+](=O)[O-])cc([N+](=O)[O-])c(Br)c1[N+](=O)[O-]	inactive: 0.1%
CCN(CC)CCCOC(=O)C(O)(c1ccccc1)C1CCCCC1 (centres undefined)	inactive: 1.2%
CP(=O)(Nc1ccccc1)Oc1ccc(F)cc1 (centres undefined)	inactive: -10.2%
CCCCCOc1ccc(NP(C)(=O)Oc2ccc(Cl)cc2Cl)cc1 (centres undefined)	inactive: 2.8%
O=[N+]([O-])c1cc([N+](=O)[O-])c(OC2CCCCC2O)c([N+](=O)[O-])c1 (centres undefined)	inactive: -1%
CCN(CC)CCCNc1ccccc1[N+](=O)[O-].O=[N+]([O-])c1cc([N+](=O)[O-])c(O)c([N+](=O)[O-])c1	inactive: -11.1%
CCOC(=O)c1ccc(NP(C)(=O)Oc2ccc(F)cc2)cc1 (centres undefined)	inactive: 0.5%
COc1ccc(OP(C)(=O)Nc2ccc(SC(F)(F)F)cc2)cc1 (centres undefined)	inactive: -2.9%
O=[N+]([O-])c1ccc(OP2(=O)COCCO2)cc1 (centres undefined)	inactive: -1.1%
O=[N+]([O-])c1cc([N+](=O)[O-])c(NCC2CCS(=O)(=O)C2)c([N+](=O)[O-])c1 (centres undefined)	inactive: -0.5%
Cc1cc(-c2cccc3ccccc23)c(C)cn1.O=[N+]([O-])c1cc([N+](=O)[O-])c(O)c([N+](=O)[O-])c1	inactive: 4.8%
Cc1c(C(c2ccc3c(c2)OCO3)c2c(C)n(C)n(-c3ccccc3)c2=O)c(=O)n(-c2ccccc2)n1C.O=[N+]([O-])c1cc([N+](=O)[O-])c(O)c([N+](=O)[O-])c1	inactive: 0.3%
COc1ccc(OP(C)(=O)Nc2cccc(Br)c2)cc1 (centres undefined)	inactive: -0.5%
CN(C)CCOC(=O)C(O)(c1ccccc1)C1CCCCC1 (centres undefined)	inactive: -3.1%
COc1ccc(NP(C)(=O)Oc2ccccc2OC)cc1 (centres undefined)	inactive: 0.8%
CP(=O)(Nc1ccc2c(c1)OCCO2)Oc1ccccc1 (centres undefined)	inactive: 0.4%
Cc1ccccc1NP(C)(=O)Nc1ccccc1C	inactive: -2.3%
O=[N+]([O-])c1cc([N+](=O)[O-])c(C(F)(F)F)c([N+](=O)[O-])c1O	inactive: -7.6%
CP(=O)(Nc1ccc(SC(F)(F)F)cc1)Oc1ccc(F)cc1 (centres undefined)	inactive: -16.6%
CCOP(C)(=S)SCC(=O)NC(C)(CC)C(=O)O (centres undefined)	inactive: 3.3%
CC(C)(C)c1ccc(OP(C)(=O)O)cc1	inactive: -0.6%
COc1ccccc1OP(C)(=O)Nc1ccccc1Br (centres undefined)	inactive: -2.5%
CP(=O)(Nc1ccc(Cl)cc1)Oc1ccc(F)cc1 (centres undefined)	inactive: 6.2%

Compound	inhibition
CN(C)C(=O)c1c([N+](=O)[O-])cc([N+](=O)[O-])cc1[N+](=O)[O-]	inactive: 11.7%
COc1ccc(OP(C)(=O)Nc2ccc(Br)cc2)cc1 (centres undefined)	inactive: -4.4%
CCN(CC)CC(O)COC(=O)C(O)(c1ccccc1)C1CCCCC1 (centres undefined)	inactive: 1.2%
O=C(OCCCN1CCCC1)C(O)(c1ccccc1)C1CCCCC1 (centres undefined)	inactive: 5.8%
COc1ccccc1OP(C)(=O)Nc1c(C)n(C)n(-c2ccccc2)c1=O (centres undefined)	inactive: -0.8%
CCc1ccc(OP(C)(=O)Nc2cccnc2)cc1 (centres undefined)	inactive: -0.2%
CP(=O)(Oc1ccccc1)N1CCOC1=O (centres undefined)	inactive: -1.4%
CCOC(=O)c1ccc(NP(C)(=O)Oc2ccc(Cl)cc2)cc1 (centres undefined)	inactive: -1.6%
CP(=O)(OC12CC3CC(CC(C3)C1)C2)OC12CC3CC(CC(C3)C1)C2	inactive: 0.5%
CP(=O)(OCCOc1ccccc1)OCCOc1ccccc1	inactive: -3.1%
CCCCCCCCCCCCCCCC1C[N+](C)(C)CCOP(C)(=O)O1 (centres undefined)	inactive: -12.7%
CP(=O)(Nc1ccc(Cl)cc1Cl)Oc1ccccc1 (centres undefined)	inactive: -0.7%
Cc1cc(C)cc(OP(C)(=O)Nc2cccc(C(F)(F)F)c2)c1 (centres undefined)	inactive: -3.5%
O=C1C(O)=C([N+](=O)[O-])C(=O)C(O)=C1[N+](=O)[O-]	inactive: -0.4%
COc1ccccc1OP(C)(=O)Nc1ccc(C)c(C)c1 (centres undefined)	inactive: -3.8%
COc1ccc(OP(C)(=O)Nc2ccccc2Br)cc1 (centres undefined)	inactive: -2.3%
O=[N+]([O-])c1cc([N+](=O)[O-])c(Nc2ccccn2)c([N+](=O)[O-])c1	inactive: -0.2%
Cc1c(NP(C)(=O)Oc2ccc(C(C)C)cc2)c(=O)n(-c2ccccc2)n1C (centres undefined)	inactive: 1.6%
COc1ccccc1OP(C)(=O)Nc1ccc(C)cc1C (centres undefined)	inactive: 0.3%
CP(=O)(Nc1ccccn1)Oc1ccccc1 (centres undefined)	inactive: -3.1%
CCc1ccc(OP(C)(=O)O)cc1	inactive: -2%
COc1ccccc1OP(C)(=O)Nc1ccc(Br)cc1 (centres undefined)	inactive: -2.8%
COc1ccc(OP(C)(=O)Nc2ccccn2)cc1 (centres undefined)	inactive: -1%
CN(C)CCOC(=O)C(O)(c1ccccc1)C1CCCC1 (centres undefined)	inactive: -1.5%
